Patent US20180000942A1, “COMPOSITIONS FOR DRUG ADMINISTRATION” (priority 2013, published 2018)

What was measured:
[1] = type: in vivo, human; details: nasal hydromorphone of the invention
[2] = system: breakthrough pain; details: in vivo; cited from earlier work

CN1CC[C@]23c4c5ccc(O)c4O[C@H]2C(=O)CC[C@H]3[C@H]1C5 [hydromorphone]
extended pain relief effects lasting [1]: ≥ 2 h | patient scores of pain relief [2]: 3.4 /4
